Patent publication EP4831169A1, “NOVEL COMPOUND USED AS CBP/P300 INHIBITOR, AND PHARMACEUTICAL COMPOSITION FOR PREVENTING OR TREATING CANCER, INFLAMMATORY DISORDERS, OR AUTOIMMUNE DISEASES COMPRISING SAME AS ACTIVE INGREDIENT” (dated 2026)

Protein sequences, listed by entry. Tags and fused reporters are not part of them. Residues count along the entry.
UniProt Q92793, 1085-1192 limits assumed: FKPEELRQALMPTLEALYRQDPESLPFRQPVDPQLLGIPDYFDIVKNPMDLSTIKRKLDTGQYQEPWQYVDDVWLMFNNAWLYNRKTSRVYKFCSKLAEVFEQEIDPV

Legend:
CBP BRD protein = CBP BRD protein (Homo sapiens, UniProt Q92793); assay: CBP bromodomain TR-FRET inhibitory activity assay; conditions: read-out: CBP BRD IC50, Table 3
BRD4 (BD1) protein = BRD4 (BD1) protein (Homo sapiens, UniProt O60885); assay: BRD4 bromodomain TR-FRET inhibitory activity assay; conditions: read-out: BRD4 (BD1) IC50, Table 4

| Compound | IC50 (CBP BRD protein) [µM] | IC50 (BRD4 (BD1) protein) [µM] |
| --- | --- | --- |
| Cn1cc(-c2cc3nc(C(C)(C)C)n(-c4cc(N5CCOCC5)c5c(c4)n(C)c(=O)n5C)c3cc2NC(=O)OC(C)(C)C)cn1 | > 5 | > 5 |
| CC(O)c1cc(-n2c(-c3cncn3C)nc3cc(-c4cnn(C)c4)c(F)cc32)cc2c1n(C)c(=O)n2C (stereo not drawn) | 0.5 to 5 | > 5 |
| Cn1cc(-c2cc3nc(-c4cncn4C)n(-c4ccc5c(c4)n(C)c(=O)n5CC4CC4)c3cc2F)cn1 | 0.5 to 5 | > 5 |
| Cn1cc(-c2cc3nc(-c4cncn4C)n(-c4ccc5c(c4)n(C)c(=O)n5C)c3cc2C(=O)O)cn1 | 0.5 to 5 | > 5 |
| Cn1cc(-c2cc3nc(C(C)(C)C)n(-c4cc(C5CCN(C(=O)OC(C)(C)C)CC5)c5c(c4)n(C)c(=O)n5C)c3cc2F)cn1 | 0.5 to 5 | > 5 |
| CC(C)c1cc(-n2c(C(C)(F)F)nc3cc(-c4cnn(C)c4)c(F)cc32)cc2c1n(C)c(=O)n2C | 0.5 to 5 | > 5 |
| COC(=O)c1cc2c(cc1Br)nc(-c1cncn1C)n2-c1ccc2c(c1)n(C)c(=O)n2C | 0.5 to 5 | 0.5 to 5 |
| Cn1c(=O)n(C)c2c(C3CCOCC3)cc(-n3c(C(F)(F)F)nc4cc(C5=CCOCC5)c(F)cc43)cc21 | > 5 | > 5 |
| CC(C)Nc1cc(-n2c(C(C)(C)C)nc3cc(-c4ccc5c(c4)OCC(=O)N5)c(F)cc32)cc2c1n(C)c(=O)n2C | < 0.5 | > 5 |
| Cn1cc(-c2cc3nc(C(C)(C)C)n(-c4cc(N5CCN(C(=O)OC(C)(C)C)CC5)c5c(c4)n(C)c(=O)n5C)c3cc2C(F)F)cn1 | < 0.5 | > 5 |
| C[C@H]1CN(c2cc(-n3c(-c4cncn4C)nc4cc(-c5cnn(C)c5)c(F)cc43)cc3c2n(C)c(=O)n3C)CCO1 | < 0.5 | > 5 |
| Cc1ccn(-c2cc3nc(C(C)(C)C)n(-c4cc(N5CC(C)(O)C5)c5c(c4)n(C)c(=O)n5C)c3cc2C(F)F)n1 | < 0.5 | > 5 |
| Cn1cc(-c2cc3nc(C(C)(C)C)n(-c4cc(OCC5CCC(=O)CC5)c5c(c4)n(C)c(=O)n5C)c3cc2F)cn1 | < 0.5 | > 5 |
| Cn1cc(-c2cc3nc(C(C)(C)C)n(-c4cc(N5CCC6(CC5)OCCO6)c5c(c4)n(C)c(=O)n5C)c3cc2C(F)F)cn1 | < 0.5 | > 5 |
| Cc1ccc2c(-c3nc4cc(-c5cnn(C)c5)c(C=O)cc4n3-c3ccc4c(c3)n(C)c(=O)n4C)c[nH]c2c1 | < 0.5 | 0.5 to 5 |
| CN(C)Cc1cc2c(cc1-c1cnn(C)c1)nc(C(C)(C)C)n2-c1cc(N2CCOCC2)c2c(c1)n(C)c(=O)n2C | > 5 | > 5 |

| Compound | IC50 (CBP BRD protein) [µM] | IC50 (BRD4 (BD1) protein) [µM] |
| --- | --- | --- |
| 3-(1,3-dimethyl-2-oxo-benzimidazol-5-yl)-2-(3-methylimidazol-4-yl)-6-(1-methylpyrazol-4-yl)benzimidazole-5-carbonitrile | < 0.5 | > 5 |
| C[C@H]1COCCN1c1cc(-n2c(C(C)(C)C)nc3cc(-c4cnn(C)c4)c(F)cc32)cc2c1n(C)c(=O)n2C | < 0.5 | > 5 |
| C#CC(C)(C)c1nc2cc(-c3cnn(C)c3)c(C#N)cc2n1-c1cc(C(C)C)c2c(c1)n(C)c(=O)n2C | < 0.5 | > 5 |
| Cn1c(=O)n(C)c2c(N3CC(C)(O)C3)cc(-n3c(C(C)(C)C)nc4cc(-c5ccc(N)cc5)c(C(F)F)cc43)cc21 | < 0.5 | > 5 |
| CC(C)Oc1cc(-n2c(C(C)(C)C)nc3cc(-c4cnn(C)c4)c(C(F)(F)F)cc32)cc2c1n(C)c(=O)n2C | < 0.5 | > 5 |
| Cn1cncc1-c1nc2cc(-c3ccc4[nH]c(=O)ccc4c3)c(F)cc2n1-c1cc(C2CCOCC2)c2c(c1)n(C)c(=O)n2C | < 0.5 | 0.5 to 5 |
| Cn1cc(-c2cc3nc(C(C)(C)C)n(-c4cc(N5CCC5)c5c(c4)n(C)c(=O)n5C)c3cc2C#N)cn1 | < 0.5 | > 5 |
| 2-tert-butyl-3-[7-(3,3-difluoroazetidin-1-yl)-1,3-dimethyl-2-oxo-benzimidazol-5-yl]-6-(1-methylpyrazol-4-yl)benzimidazole-5-carbonitrile | < 0.5 | > 5 |
| CN1CCC(c2cc(-n3c(-c4cncn4C)nc4cc(-c5cnn(C)c5)c(F)cc43)cc3c2n(C)c(=O)n3C)CC1 | < 0.5 | > 5 |
| Cn1cc(-c2cc3nc(-c4cncn4C)n(-c4cc(N5CC6CC(C5)O6)c5c(c4)n(C)c(=O)n5C)c3cc2F)cn1 | < 0.5 | > 5 |
| COc1ccc(Oc2cc(-n3c(C(C)(C)C)nc4cc(-c5cnn(C)c5)c(C(F)F)cc43)cc3c2n(C)c(=O)n3C)cc1 | < 0.5 | > 5 |
| Cn1cc(-c2cc3nc(-c4cncn4C)n(-c4cc(N5CCOCC5)c5c(c4)n(C)c(=O)n5C)c3cc2F)cn1 | < 0.5 | > 5 |
| CC(C)Oc1cc(-n2c(C(C)(C)C)nc3cc(-c4cnn(C)c4)c(C(F)F)cc32)cc2c1n(C)c(=O)n2C | < 0.5 | > 5 |
| Cn1cc(-c2cc3nc(C(C)(C)C)n(-c4cc(OCCN5CCOCC5)c5c(c4)n(C)c(=O)n5C)c3cc2C(F)F)cn1 | < 0.5 | > 5 |
| Cn1cc(-c2cc3nc(-c4cncn4C)n(-c4cc(N5C[C@@H]6C[C@H]5CO6)c5c(c4)n(C)c(=O)n5C)c3cc2F)cn1 | < 0.5 | 0.5 to 5 |
| CC(C)Nc1cc(-n2c(-c3cncn3C)nc3cc(-c4cnn(C)c4)c(C(F)(F)F)cc32)cc2c1n(C)c(=O)n2C | < 0.5 | > 5 |

The next lines start with the values.

| IC50 (CBP BRD protein) [µM] | IC50 (BRD4 (BD1) protein) [µM] | Compound |
| --- | --- | --- |
| < 0.5 | > 5 | Cc1cnn(-c2cc3nc(C(C)(C)C)n(-c4cc(N5CC(C)(O)C5)c5c(c4)n(C)c(=O)n5C)c3cc2C(F)F)c1 |
| < 0.5 | > 5 | Cn1cc(-c2cc3nc(-c4cncn4C)n(-c4cc(C5CCN(C(=O)OC(C)(C)C)CC5)c5c(c4)n(C)c(=O)n5C)c3cc2F)cn1 |
| < 0.5 | 0.5 to 5 | Cn1cc(-c2cc3nc(-c4cncn4C)n(-c4cc(N5CCOCC5)c5c(c4)n(C)c(=O)n5C)c3cc2Cl)cn1 |
| < 0.5 | > 5 | Cn1cc(-c2cc3nc(-c4cncn4C)n(-c4cc(NC5CCCCC5)c5c(c4)n(C)c(=O)n5C)c3cc2F)cn1 |
| < 0.5 | 0.5 to 5 | Cn1cncc1-c1nc2cc(-c3ccc4c(c3)CCC(=O)N4)c(F)cc2n1-c1cc(C2CCOCC2)c2c(c1)n(C)c(=O)n2C |
| < 0.5 | > 5 | CC(C)c1cc(-n2c(-c3cncn3C)nc3cc(-c4cnn(C)c4)c(C#N)cc32)cc2c1n(C)c(=O)n2C |
| < 0.5 | > 5 | Cc1ncc(-c2cc3nc(C(C)(C)C)n(-c4cc(C5CCOCC5)c5c(c4)n(C)c(=O)n5C)c3cc2C(F)(F)F)s1 |
| < 0.5 | > 5 | CC(C)Nc1cc(-n2c(C(C)(C)C#N)nc3cc(-c4ccc5c(c4)OCC(=O)N5)c(F)cc32)cc2c1n(C)c(=O)n2C |
| < 0.5 | > 5 | Cn1cc(-c2cc3nc(-c4cncn4C)n(-c4cc(C5CCCCC5)c5c(c4)n(C)c(=O)n5C)c3cc2F)cn1 |
| < 0.5 | > 5 | Cn1cc(-c2cc3nc(-c4cncn4C)n(-c4cc(C5CC5)c5c(c4)n(C)c(=O)n5C)c3cc2F)cn1 |
| < 0.5 | > 5 | COc1ccc(-c2cc(-n3c(C(C)(C)C)nc4cc(-c5cnn(C)c5)c(F)cc43)cc3c2n(C)c(=O)n3C)cc1 |
| < 0.5 | > 5 | COc1ccccc1-c1nc2cc(-c3cnn(C)c3)c(C(F)F)cc2n1-c1cc(N2CC(C)(O)C2)c2c(c1)n(C)c(=O)n2C |
| < 0.5 | > 5 | COc1cc2c(cc1-c1cnn(C)c1)nc(C(C)(C)C)n2-c1cc(N2CCOCC2)c2c(c1)n(C)c(=O)n2C |
| < 0.5 | > 5 | CN(C)CCn1cc(-c2cc3nc(C(C)(C)C)n(-c4cc(N5CC(C)(N(C)C)C5)c5c(c4)n(C)c(=O)n5C)c3cc2C(F)F)cn1 |
| < 0.5 | 0.5 to 5 | Cn1cc(-c2cc3nc(-c4cncn4C)n(-c4cc(N5CC(O)(C(F)(F)F)C5)c5c(c4)n(C)c(=O)n5C)c3cc2C(F)F)cn1 |
| < 0.5 | > 5 | CC(C)Oc1cc(-n2c(-c3cccnc3)nc3cc(-c4cnn(C)c4)c(F)cc32)cc2c1n(C)c(=O)n2C |
| < 0.5 | > 5 | Cn1cc(-c2cc3nc(-c4cncn4C)n(-c4cc(OC5CCCC5)c5c(c4)n(C)c(=O)n5C)c3cc2F)cn1 |
| < 0.5 | > 5 | Cn1cc(-c2cc3nc(-c4cncn4C)n(-c4cc(N5CC(F)(F)C5)c5c(c4)n(C)c(=O)n5C)c3cc2C(F)(F)F)cn1 |
| < 0.5 | > 5 | Cn1c(=O)n(C)c2c(N3CC(C)(O)C3)cc(-n3c(C(C)(C)C)nc4cc(-c5cnn(CCN6CCOCC6)c5)c(C(F)F)cc43)cc21 |
| < 0.5 | > 5 | COc1ccc(-c2cc(-n3c(-c4cncn4C)nc4cc(-c5cnn(C)c5)c(F)cc43)cc3c2n(C)c(=O)n3C)cc1 |
| < 0.5 | > 5 | Cn1cncc1-c1nc2cc(-c3cnn(C4CC4)c3)c(F)cc2n1-c1cc(N2CCOCC2)c2c(c1)n(C)c(=O)n2C |
| < 0.5 | 0.5 to 5 | CC(=O)Nc1ccc(-c2cc3nc(-c4cncn4C)n(-c4cc(N5CCOCC5)c5c(c4)n(C)c(=O)n5C)c3cc2F)cc1 |
| < 0.5 | 0.5 to 5 | CCC(C)Nc1cc(-n2c(-c3cncn3C)nc3cc(-c4cnn(C)c4)c(F)cc32)cc2c1n(C)c(=O)n2C (stereo not drawn) |
| < 0.5 | > 5 | Cc1ncc(-c2cc3nc(C(C)(C)C)n(-c4cc(N5CC(C)(O)C5)c5c(c4)n(C)c(=O)n5C)c3cc2O)s1 |
| < 0.5 | > 5 | Cn1cc(-c2cc3nc(-c4cncn4C)n(-c4cc(C5CCNCC5)c5c(c4)n(C)c(=O)n5C)c3cc2F)cn1 |
| < 0.5 | > 5 | Cn1cc(-c2cc3nc(C(C)(C)C)n(-c4cc(OC5COC5)c5c(c4)n(C)c(=O)n5C)c3cc2C(F)F)cn1 |
| < 0.5 | > 5 | Cn1cc(-c2cc3nc(C(C)(C)C)n(-c4cc(N5CCOCC5)c5c(c4)n(C)c(=O)n5C)c3cc2N)cn1 |
| < 0.5 | > 5 | CN1CC=C(c2cc(-n3c(-c4cncn4C)nc4cc(-c5cnn(C)c5)c(F)cc43)cc3c2n(C)c(=O)n3C)CC1 |
